This data set is described as follows: inactivation by the liver.

On to “L-leucyl-L-glutamyl-L-glutamyl-L-glutamyl-L-glutamyl-L-glutamyl-L-ananyl-L-tyrosyl-glycyl-L-tryptophyl-L-leucyl-L-asparagyl-L-phenylalanineamide [11-leucine-minigastrin]”, for which the “inactivation by the liver” value is listed as “only slowly inactivated”.

For the origin of these results see US4117117A, “Tridecapetide having gastrin effect” (Max Planck-Gesellschaft zur Forderung der Wissenschaften, priority 1976, dated 1978).
